Experiments:
[1] = test system: Relapsing-Remitting Multiple Sclerosis (RRMS); settings: given subcutaneously three times per week; cited from earlier work
[2] = test system: Vesicular Stomatitis virus; assay type: cell-based

For “Rebif®: purified 166 amino acid glycoprotein, recombinant human interferon beta-1a produced in Chinese Hamster Ovary cells”, the “efficacy in RRMS” value [1] is given as “efficacious”, the “antiviral activity contained in 44 mcg” value ([2]; 44 mcg, same bioassay) is given as “approximately 12 MIU” and the “specific activity (antiviral activity)” value ([2]; reference standard calibrated against the WHO natural interferon beta standard, WISH cells, Vesicular Stomatitis virus) is given as “approximately 270 million international units (MIU) of antiviral activity per mg of interferon beta-1a”.

Source: patent US12377056B2, “Cladribine regimen for treating multiple sclerosis” (priority 2006, dated 2025)
